Measured values reported in article PMC5748433, “Study on the effect of EMD386088, a 5-HT6 receptor partial agonist, in enhancing the anti-immobility action of some antidepressants in rats” (Naunyn-Schmiedeberg's Archives of Pharmacology, 2017).

Tested on: rats
Assay: Open field (OF) test in rats, locomotor/exploratory activity
Type: in vivo, rat
Settings: 5 mg/kg i.p. 60 min before test, 5-min session, mean ± SEM

CCOc1ccccc1OC(c1ccccc1)C1CNCCO1 (stereo not shown) [reboxetine]
Exploratory activity Ambulation X: 221 ± 16
Exploratory activity Ambulation Y: 220 ± 12
Exploratory activity Rearings: 84 ± 6
Exploratory activity Total distance (cm): 2196 ± 74 cm
